Rows were chosen to be rich in hits. Some 2.8% of all compounds tested hit in one or more screens of this group.
MITF act – increases MITF-driven TRPM1 promoter luciferase signal. SK-MEL-5 TRPM1-promoter luciferase, 24 h; % of positive control, neutral wells = 0. activation, % at 12.5 µM. actives 0.75% (n = 300,000);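 active means mean activation of at least 80% with every replicate also reaching 80%; inconclusive means mean reaches 80% but some replicate falls short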;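 further: 0% = neutral control wells and 100% = parthenolide positive control wells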
Wnt bcat act – Wnt/beta-catenin pathway activation; Wnt/beta-catenin reporter cell assay, activator, plate reader; activation, % at 9.35 µM; actives 1.2% (n = 300,000); in the data active means activation above about 30%, passing the limit was not always enough; inconclusive means no clear call, values can overlap the other calls;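 further: 0% = neutral control wells and 100% = positive control wells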
esBAF inh – SWI/SNF esBAF complex inhibition; mouse ES cells, Bmi1-luciferase knock-in reporter, 24 h; 100% = twice the neutral-well signal; reporter increase, % at 12.5 µM; actives 2% (n = 350,000); in the data active means activation above about 40%; inconclusive means no clear call, values can overlap the other calls;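 further: 0% = median of the plate's neutral control wells and 100% = double that signal; a rise in the Bmi1 reporter signal indicates esBAF inhibition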
PglD inh – PglD (C. jejuni) enzyme inhibition. purified PglD enzyme, DTNB colorimetric CoA detection. inhibition, % at 12.5 µM. actives 0.098% (n = 360,000); in the data active means inhibition above about 16%, passing the limit was not always enough; inconclusive means no clear call, values can overlap the other calls
UUG fidelity – yeast start codon fidelity modulation | S. cerevisiae UUG-firefly luciferase reporter, luminescence/redox ratio | activity score, % at 18.7 µM | hit rate 0.13% among 350,000 | AID 602363;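 active means replicate mean at a twofold rise or more, about +100% in these data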;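 further: firefly luciferase made from a UUG start codon reports start codon fidelity; reporter light over untreated wells divided by growth signal over untreated wells; some hits fall short of that in this replicate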
miR122 inh – blocks miR-122 activity in Huh7 sensor cells. Huh7 miR-122 Renilla luciferase sensor, 48 h; neutral wells = 0, positive control = 100. activation (reporter increase), % at 12.5 µM. actives 0.3% (n = 340,000);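 active means mean replicate activation score at least 90 and every replicate individually at or above 90; inconclusive means only one of the two criteria met; inactive means neither criterion met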;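 further: higher luciferase means less miR-122 activity so hits act as miR-122 inhibitors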
Active calls of the source: *; ? = inconclusive; · = no result given; [ ] = remark or other dose.

Start of the listing, in advance, 2 compounds:
Letters: A = MITF act; B = Wnt bcat act; C = esBAF inh; D = PglD inh; E = UUG fidelity; F = miR122 inh
SMILES: CC(C)Oc1ccc(C2CC(=O)N(c3cccc(C(=O)O)c3)C2=O)cc1 (centres undefined)
  A = 23	B = 11	C = 56*	D = 0	E = -14	F = 3

SMILES: C[C@@H]1CN([C@H](C)CO)C(=O)c2cc(NC(=O)CCC(F)(F)F)ccc2O[C@@H](C)CCCCO[C@@H]1CN(C)Cc1ccncc1
  A = ·	B = ·	C = -9	D = ·	E = ·	F = 1[16.7 µM]

This part in full, repeating the preview:
Letters: A = MITF act; B = Wnt bcat act; C = esBAF inh; D = PglD inh; E = UUG fidelity; F = miR122 inh
SMILES: CC(C)Oc1ccc(C2CC(=O)N(c3cccc(C(=O)O)c3)C2=O)cc1 (centres undefined)
  A = 23	B = 11	C = 56*	D = 0	E = -14	F = 3

SMILES: C[C@@H]1CN([C@H](C)CO)C(=O)c2cc(NC(=O)CCC(F)(F)F)ccc2O[C@@H](C)CCCCO[C@@H]1CN(C)Cc1ccncc1
  A = ·	B = ·	C = -9	D = ·	E = ·	F = 1[16.7 µM]

SMILES: COc1ccc(C2CC(C)(c3ccc(OC)cc3)Nc3ccccc3N2)cc1 (centres undefined)
  A = ·	B = 49*	C = ?	D = 1	E = -4	F = 9

SMILES: N#C/C(=C/c1ccc(OC(=O)c2ccc(Br)s2)cc1)c1nc2ccccc2[nH]1
  A = 68	B = 9	C = 83*	D = 2	E = -11	F = -2

SMILES: CN(C(=O)/C=C/c1ccc2c(c1)OCO2)c1ccccc1
  A = 11	B = 14	C = 53*	D = -4	E = -16	F = -5

SMILES: COc1cccc(/C=C/C(=O)c2ccc[nH]2)c1
  A = 42	B = ·	C = 60*	D = 4	E = -11	F = 4

SMILES: C(=N\N(c1ccccc1)c1ccccc1)/c1ccc2c(c1)OCO2
  A = -6	B = -7	C = ·	D = ·	E = ·	F = ·

SMILES: O=C1c2ccccc2C(=O)N1N=Cc1ccc2c(c1)OCO2
  A = ·	B = 52*	C = ·	D = ·	E = ·	F = ·

SMILES: CN(/N=C/c1ccc2c(c1)OCO2)c1ccccc1
  A = 118*	B = ·	C = 51*	D = 0	E = -2	F = 0

SMILES: O=C1CSC(=S)N1N=Cc1ccc2c(c1)OCO2
  A = 2	B = 8	C = ·	D = ·	E = ·	F = ·

SMILES: O=C(Cn1cc(CN2C(=O)COC[C@H]2c2ccccc2)nn1)Nc1nccs1
  A = ·	B = ·	C = ·	D = 2	E = 34	F = ·

SMILES: CCC(=O)Nc1ccc2c(c1)OC[C@H](C)N(C(=O)c1cccnc1)C[C@@H](C)[C@@H](OC)CN(C)C2=O
  A = ·	B = ·	C = -7	D = -2	E = 33	F = ·

SMILES: O=C(C[C@@H]1C[C@H]2c3cc(NC(=O)NC4CCCCC4)ccc3O[C@H]2[C@H](CO)O1)NCC(F)(F)F
  A = ·	B = ·	C = 8	D = 1	E = 11	F = -6[16.7 µM]

SMILES: O=C(/C=C/c1ccc2c(c1)OCO2)c1ccc[nH]1
  A = 53	B = 42*	C = ·	D = ·	E = ·	F = ·

SMILES: Cc1cn2c(N)c(/C=C3\C=Nc4ccccc43)c(=O)nc2s1
  A = ·	B = 39*	C = ·	D = ·	E = ·	F = ·

SMILES: Cc1ccc(S(=O)(=O)N(C)C[C@H]2Oc3c(NS(=O)(=O)c4cn(C)cn4)cccc3C(=O)N([C@H](C)CO)C[C@@H]2C)cc1
  A = ·	B = ·	C = -5	D = ·	E = ·	F = 2[16.7 µM]

SMILES: COc1cccc(N2C(=O)/C(=C\c3cccs3)NC2=S)c1
  A = 15	B = 12	C = 43*	D = ·	E = ·	F = -5

SMILES: COc1ccc(N2C(=O)/C(=C/c3cccnc3)NC2=S)cc1
  A = -4	B = 2	C = ·	D = ·	E = ·	F = ·

SMILES: O=C(Nc1ccc(F)cc1)N1C[C@@H]2[C@H](c3ccccc31)[C@H](CO)N2C(=O)Cc1ccncc1
  A = ·	B = ·	C = -1	D = -2	E = 35	F = 12[16.7 µM]

SMILES: COc1ccc(Oc2nccc(-c3ccccc3)c2C#N)cc1
  A = 65	B = ·	C = 55*	D = -4	E = 16	F = 2

SMILES: C[C@H](CO)N1C[C@H](C)[C@@H](CN(C)Cc2ccncc2)OCCCC[C@H](C)Oc2ccc(NS(=O)(=O)c3cn(C)cn3)cc2C1=O
  A = ·	B = ·	C = -6	D = -2	E = 5	F = 18[16.7 µM]

SMILES: CCN(CC)S(=O)(=O)c1ccc(O)c(NC(=O)COc2ccc(S(=O)(=O)N3CCOCC3)cc2)c1
  A = 5	B = 44*	C = -5	D = -1	E = -9	F = ·

SMILES: COC(=O)c1nn(-c2ccc(C)cc2)c2nnc(Cc3ccccc3)c(=O)n12
  A = -1	B = 37*	C = ·	D = ·	E = ·	F = ·

SMILES: COC(=O)c1nn(-c2cccc(C)c2)c2nnc(Cc3ccc(C)cc3)c(=O)n12
  A = 2	B = -6	C = ·	D = ·	E = ·	F = ·

SMILES: CCCNC(=O)[C@@H]1[C@@H](CO)[C@@H]2Cn3c(ccc(-c4ccc(F)cc4)c3=O)[C@@H]2N1CC1CC1
  A = ·	B = ·	C = -4	D = -5	E = ·	F = -4[16.7 µM]

Look-ups from the list:
CC(C)Oc1ccc(C2CC(=O)N(c3cccc(C(=O)O)c3)C2=O)cc1 (centres undefined) @ Wnt bcat act: 11
CN(/N=C/c1ccc2c(c1)OCO2)c1ccccc1 @ esBAF inh: 51*

Continuation:
Letters: A = MITF act; B = Wnt bcat act; C = esBAF inh; D = PglD inh; E = UUG fidelity; F = miR122 inh
SMILES: CN(C)S(=O)(=O)c1cccc(-c2nnc(-c3ccccc3)o2)c1
  A = 86*	B = 0	C = ·	D = ·	E = ·	F = 4

SMILES: O=S(=O)(NC1CCCCC1)c1cccc(-c2nnc(-c3ccccc3)o2)c1
  A = 2	B = -2	C = -1	D = 1	E = -11	F = 100*

SMILES: O=C(Nc1ccc(N2CCOCC2)cc1N1CCOCC1)c1cccs1
  A = ·	B = 16	C = -5	D = 2	E = -15	F = -7

SMILES: O=C(N/N=C/c1ccc(N2CCOCC2)cc1)c1cccs1
  A = 43	B = 56*	C = 8	D = ·	E = ·	F = -1

SMILES: O=C(c1ccc(N2CCOCC2)cc1)c1cccs1
  A = ·	B = 42*	C = -7	D = -5	E = -32	F = 1

SMILES: COCCCN(C(C)=O)c1nc(-c2ccccc2)cs1
  A = 41	B = 5	C = 46*	D = 4	E = 2	F = -3

SMILES: COCCCN(C(=O)c1ccccc1)c1nc(-c2ccc(OC)cc2)cs1
  A = ·	B = -2	C = -2	D = -3	E = -14	F = ·

SMILES: O=S(=O)(Nc1ccc(N2CCOCC2)cc1)c1cc(Cl)ccc1Cl
  A = 9	B = -2	C = -6	D = 2	E = 25	F = 94*
